For 16 compounds, IC50 results are on record in ChEMBL document CHEMBL1150369, “Conformation-opioid activity relationships of bicyclic guanidines from 3D similarity analysis” (Bioorg Med Chem, 2008).

The chains behind the UniProt entries cited, without tags or fusion partners. Where a name states a change or a piece, a line headed by the entry shows the natural chain unless it says otherwise.
UniProt P41144: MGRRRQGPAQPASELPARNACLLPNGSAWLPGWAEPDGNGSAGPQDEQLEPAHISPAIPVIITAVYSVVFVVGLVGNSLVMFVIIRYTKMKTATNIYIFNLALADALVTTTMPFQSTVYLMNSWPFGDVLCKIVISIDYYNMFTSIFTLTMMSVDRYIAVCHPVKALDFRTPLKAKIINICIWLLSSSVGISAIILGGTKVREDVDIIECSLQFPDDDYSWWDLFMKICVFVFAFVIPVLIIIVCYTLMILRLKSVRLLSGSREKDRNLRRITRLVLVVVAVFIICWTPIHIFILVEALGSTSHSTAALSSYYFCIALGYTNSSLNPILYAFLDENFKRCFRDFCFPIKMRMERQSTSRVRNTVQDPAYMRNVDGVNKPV

The assay deals with Kappa-type opioid receptor (Cavia porcellus, UniProt P41144). The assay can be described thus: Displacement of [3H]U69593 from kappa opioid receptor in guinea pig brain homogenate. Type of assay: tissue-based.
The term IC50 denotes the concentration needed to halve the response being measured. The low end stands for inhibition by little substance, the high end for a need for much substance. Turning to `COc1ccc(C[C@@H]2CN3C(=NC[C@H]3C3CCCCC3)N2CC2CCC(C)CC2)cc1` (stereo partly specified), the half-inhibitory concentration (IC50) stood at 362 nM. Compound `COc1ccc(C[C@@H]2CN3C(=NC[C@@H]3C)N2C(C)C23CC4CC(CC(C4)C2)C3)cc1` (stereo partly specified) came in with a half-inhibitory concentration (IC50) of 238 nM. For the compound `COc1ccc(C[C@H]2CN3C(=NC[C@@H]3C)N2CCC2CC3CCC2C3)cc1` (stereo partly specified), the IC50 came out at 185 nM. The compound `COc1ccc(C[C@H]2CN3C(=NC[C@@H]3C)N2CC2CCC(C)CC2)cc1` (stereo partly specified) returned an IC50 of 1570 nM. Then `CC(C)C[C@@H]1CN2C(=NC[C@@H]2C2CCCCC2)N1CCC1CC2CCC1C2` (stereo partly specified), with 827 nM; and `COc1ccc(C[C@H]2CN3C(=NC[C@H]3C3CCCCC3)N2CC2CCC(C)CC2)cc1` (stereo partly specified), with 804 nM.

Take `CC1CCC(CN2C3=NC[C@@H](C4CCCCC4)N3C[C@@H]2C2CCCCC2)CC1` (stereo in doubt; 11): the half-inhibitory concentration (IC50) was 365 nM. This IC50 is about 2.2-fold lower than that of the compound before.

As for `C[C@H]1CN=C2N(CCC3CC4CCC3C4)[C@@H](C3CCCCC3)CN21` (stereo partly specified), the half-maximal inhibitory concentration (IC50) came to 4420 nM. As for `COc1ccc(C[C@@H]2CN3C(=NC[C@@H]3C3CCCCC3)N2CC2CCC(C)CC2)cc1` (stereo partly specified), the figure is 369 nM; as for `CC1CCC(CN2C3=NC[C@@H](C4CCCCC4)N3C[C@@H]2C2CCCCC2)CC1` (stereo in doubt; 24), 1140 nM. Then `CC(C)C[C@@H]1CN2C(=NC[C@@H]2C)N1CC1CCC(C)CC1` (stereo partly specified), with 6480 nM. As for `COc1ccc(C[C@@H]2CN3C(=NC[C@H]3C3CCCCC3)N2C(C)C23CC4CC(CC(C4)C2)C3)cc1` (stereo partly specified), the figure is 341 nM; as for `COc1ccc(C[C@@H]2CN3C(=NC[C@@H]3C)N2CC2CCC(C)CC2)cc1` (stereo partly specified), 425 nM. In turn, `COc1ccc(C[C@@H]2CN3C(=NC[C@@H]3C)N2CCC2CC3CCC2C3)cc1` (stereo partly specified) displayed an IC50 of 85 nM.

`CC(C)C[C@@H]1CN2C(=NC[C@H]2C2CCCCC2)N1CCC1CC2CCC1C2` (stereo partly specified) had an IC50 of 359 nM. Then `COc1ccc(C[C@H]2CN3C(=NC[C@@H]3C3CCCCC3)N2CC2CCC(C)CC2)cc1` (stereo partly specified), with 336 nM.
